Assays:
Meprin A subunit beta [1] = target: T1, Meprin A subunit beta (Homo sapiens, UniProt Q16820); assay: Inhibition of human meprin beta expressed in baculovirus infected BTI-TN-5B1-4 insect cells using N-benzoyl-L-tyrosylp-aminobenzoic acid as substrate
T1 sequence (Q16820 whole entry): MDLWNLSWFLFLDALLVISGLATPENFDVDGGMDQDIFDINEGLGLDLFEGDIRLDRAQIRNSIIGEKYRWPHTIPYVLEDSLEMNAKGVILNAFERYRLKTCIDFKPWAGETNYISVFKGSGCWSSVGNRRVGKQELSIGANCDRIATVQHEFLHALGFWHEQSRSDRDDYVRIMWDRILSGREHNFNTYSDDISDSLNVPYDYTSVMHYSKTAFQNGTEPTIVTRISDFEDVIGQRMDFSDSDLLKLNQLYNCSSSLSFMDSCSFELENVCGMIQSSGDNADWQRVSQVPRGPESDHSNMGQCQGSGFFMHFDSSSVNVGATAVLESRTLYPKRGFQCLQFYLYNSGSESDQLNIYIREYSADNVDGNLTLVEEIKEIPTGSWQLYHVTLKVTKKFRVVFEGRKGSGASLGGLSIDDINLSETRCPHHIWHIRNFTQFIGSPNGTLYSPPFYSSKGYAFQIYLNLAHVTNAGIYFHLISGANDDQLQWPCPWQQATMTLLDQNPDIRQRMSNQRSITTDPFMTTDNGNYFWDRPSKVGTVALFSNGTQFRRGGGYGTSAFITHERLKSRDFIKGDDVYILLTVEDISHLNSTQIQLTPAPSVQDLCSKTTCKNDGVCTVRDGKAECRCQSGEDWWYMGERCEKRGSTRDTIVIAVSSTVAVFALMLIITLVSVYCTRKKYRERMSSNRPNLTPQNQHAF

Meprin A subunit beta [2] = target: T1, Meprin A subunit beta; assay: Inhibition of recombinant human meprin beta expressed in yeast using Abz-YVAEAPK(Dnp)G-OH as substrate by fluorescence assay

- Ki (Meprin A subunit beta [1]): 7.4 µM
- IC50 (Meprin A subunit beta [2]): 17.1 µM
SMILES: COc1ccc(S(=O)(=O)N(CC(=O)NO)CC(C)C)cc1

— ChEMBL document CHEMBL4017469, “First insight into structure-activity relationships of selective meprin β inhibitors” (Bioorg Med Chem Lett, 2017)
